Measured values as given in PubChem BioAssay AID504796 (The Scripps Research Institute Molecular Screening Center, 2011).
This is a selection; strong and weak results do not stand in their true shares. Active and inactive are the calls of the source. No stated cut-off is given here; in the data, active means activation above about 20%; inactive means the rest.

Assay: fluorescence polarization artefacts, biochemical, artefact control for PKA-R2B activator project (AID 504796);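 further: Cy5 labelled IP20 peptide probe with compound but no PKA protein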
Conditions: FP artifact counterscreen, at 11.4 µM, active compounds read high

## COc1ccc(NP(C)(=O)Oc2ccccc2OC)cc1 (stereo unspecified)
  activation: inactive: 0.42%
